Measured values as given in patent publication US7632645B1, “EGF receptor transactivation by G-protein-coupled receptors requires metalloproteinase cleavage of proHB-EGF” (Max-Planck-Gesellschaft zur forderung der Wissenschaften …, priority 1999, dated 2009).

Chains of the proteins cited; added tags and fusions are not shown. Lines headed by an entry give the natural chain unless they say otherwise; changes in a name come on top.
UniProt P09619: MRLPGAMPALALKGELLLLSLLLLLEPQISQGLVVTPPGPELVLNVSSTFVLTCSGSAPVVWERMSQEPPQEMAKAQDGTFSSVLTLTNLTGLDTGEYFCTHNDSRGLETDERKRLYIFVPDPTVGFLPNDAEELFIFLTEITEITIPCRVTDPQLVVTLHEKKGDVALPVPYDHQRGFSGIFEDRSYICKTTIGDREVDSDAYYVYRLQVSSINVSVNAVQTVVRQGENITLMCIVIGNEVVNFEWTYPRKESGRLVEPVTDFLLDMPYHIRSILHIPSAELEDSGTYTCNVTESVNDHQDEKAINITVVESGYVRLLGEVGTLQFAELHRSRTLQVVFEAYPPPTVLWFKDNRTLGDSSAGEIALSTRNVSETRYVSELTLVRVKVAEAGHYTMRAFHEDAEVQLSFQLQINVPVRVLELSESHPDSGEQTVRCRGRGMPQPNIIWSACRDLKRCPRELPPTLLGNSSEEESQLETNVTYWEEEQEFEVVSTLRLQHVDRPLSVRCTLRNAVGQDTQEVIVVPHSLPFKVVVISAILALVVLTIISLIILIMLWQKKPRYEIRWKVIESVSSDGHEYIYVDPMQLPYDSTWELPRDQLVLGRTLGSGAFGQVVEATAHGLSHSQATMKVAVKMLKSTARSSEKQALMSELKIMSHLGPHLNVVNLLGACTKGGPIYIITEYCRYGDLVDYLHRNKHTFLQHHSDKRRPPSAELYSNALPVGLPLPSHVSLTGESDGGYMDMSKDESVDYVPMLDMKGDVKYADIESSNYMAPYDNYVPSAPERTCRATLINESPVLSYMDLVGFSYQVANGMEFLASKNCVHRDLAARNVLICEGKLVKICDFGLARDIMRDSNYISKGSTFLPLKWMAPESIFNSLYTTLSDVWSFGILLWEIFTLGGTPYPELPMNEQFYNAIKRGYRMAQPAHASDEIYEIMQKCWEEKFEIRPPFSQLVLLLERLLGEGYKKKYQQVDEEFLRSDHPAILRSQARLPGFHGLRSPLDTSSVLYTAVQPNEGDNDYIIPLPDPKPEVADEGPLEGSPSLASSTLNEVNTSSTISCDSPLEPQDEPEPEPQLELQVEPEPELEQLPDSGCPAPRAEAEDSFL

Molecular target: T1, EP-R chimera (EGFR extracellular, PDGFR transmembrane and cytoplasmic signalling domain) (Homo sapiens, UniProt P00533+P09619)
T1 construct: the platelet-derived growth-factor receptor (PDGFR) transmembrane and cytoplasmic signalling domain; human EGFR extracellular domain (fusion partner); expressed in transfected cells
Test: Tyrosine phosphorylation of EP-R chimera in Rat-1/EP-R cells (immunoprecipitation with mAb 108.1, αPY immunoblot)
Format: cell-based

How did the “effect on thrombin-induced tyrosine phosphorylation of the chimeric receptor EP-R” value turn out when `Cc1cc2ncc(-c3ccccc3)nc2cc1C` [AG1295] was run?
Its value is “blocked”.
